This passage reports Activity results from ChEMBL document CHEMBL5113514 (J Med Chem, 2022).

This data set can be described thus: Toxicity in Swiss albino mouse assessed as effect on spontaneous locomotor activity administered intraperitonially measured at 10 mins interval for 30 mins. The note with it: in vivo, ip, 0.5 h.

`C[C@H](C(=O)NCc1ccccc1F)N1C(=O)CCC1=O`: the Activity result is reported as “Dde”.
